# Measured values reported in US9796704B2, “Substituted quinazolines as receptor-type kinase inhibitors” (Symphony Evolution, Inc., priority 2002, dated 2017).
# Sequences of proteins named here, by UniProt entry; tags and fusion partners are left off. Residues count along the entry.
# UniProt P29317, 598-890: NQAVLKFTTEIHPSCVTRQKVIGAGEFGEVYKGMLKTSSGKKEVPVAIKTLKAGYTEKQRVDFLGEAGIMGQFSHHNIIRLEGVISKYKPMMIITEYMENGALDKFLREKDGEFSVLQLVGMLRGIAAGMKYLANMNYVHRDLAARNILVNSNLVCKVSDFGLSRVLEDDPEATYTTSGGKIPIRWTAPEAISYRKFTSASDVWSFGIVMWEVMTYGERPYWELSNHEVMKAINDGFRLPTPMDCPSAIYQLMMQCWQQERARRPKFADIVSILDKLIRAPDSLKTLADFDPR
# UniProt P54760, 605-890: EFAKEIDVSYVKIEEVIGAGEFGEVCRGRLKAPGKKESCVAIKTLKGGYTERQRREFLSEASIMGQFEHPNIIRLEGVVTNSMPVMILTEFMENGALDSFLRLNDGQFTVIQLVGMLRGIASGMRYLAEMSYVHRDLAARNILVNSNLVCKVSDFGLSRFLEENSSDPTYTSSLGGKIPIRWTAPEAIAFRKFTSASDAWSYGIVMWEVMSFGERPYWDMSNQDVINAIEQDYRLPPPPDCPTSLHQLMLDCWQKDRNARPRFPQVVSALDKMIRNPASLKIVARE
# Assays:
# [1] = molecular target: EphA2 (Homo sapiens (Human), UniProt P29317); assay: EphA2 kinase inhibition, luciferase-coupled chemiluminescent assay (LCCA); conditions: read-out: EphA2 IC50
# [2] = molecular target: EphB4 (Homo sapiens (Human), UniProt P54760); assay: EphB4 kinase inhibition, 33P phosphoryl transfer assay (radiometric); type: biochemical
# Description: Phosphorylated substrate products are quantified by scintillation spectrometry.
# Kinase activity and compound inhibition are investigated using one or more of the three assay formats described below. The ATP concentrations are selected near its Michaelis-Menten constant (KM) for each individual kinase. Dose-response experiments are performed at ten different inhibitor concentrations in a 384-well plate format. […] These parameters are obtained by nonlinear regression algorithm built into ActivityBase software (available from ID Business Solutions Ltd., of Guildford, Surrey, UK). ^33P Phosphoryl Transfer Assay (Radiometric)
# Greiner 384-well white clear bottom high binding plates (available from Greiner Bio-One, Inc., of Longwood, Fla.) are coated with 2 μg/well of protein or peptide substrate in a 50 μL volume overnight at ambient temperature. […] The coating solution is aspirated and the plates are washed once with 50 μL of assay buffer and padded dry. Subsequently compounds and enzymes are mixed with γ ^33P-ATP (3.3 μCi/nmol) in a total volume of 20 uL in suitable assay buffers (see Table 2). For example the final EphB4 reaction solution contains 20 mM TrisHCl, pH 7.5, 10 mM MgCl2, 0.01% Triton X-100, 0.1 mM NaVO3, 5 nM EphB4 enzyme and 5 μM ATP. […] The plates are subsequently washed 6-12 times with PBST or TBS buffer.
pIC50 [1],pIC50 [2],SMILES
4.70 to 6.00,,"COc1cc2c(Nc3ccc(Cl)c(Cl)c3F)ncnc2cc1OC[C@@H]1CN2CCCC[C@@H]2C(=O)N1 [Example 50, (3S,9aR)-3-({[4-[(3,4-dichloro-2-fluorophenyl)amino]-6-(methyloxy)quinazolin-7-yl]oxy}methyl)hexahydro-2H-pyrido[1,2-a]pyrazin-1(6H)-one]"
,6.00 to 7.30,"COc1cc2c(Nc3ccc(Cl)c(Cl)c3)ncnc2cc1OCC1CNCCCO1 (stereo not shown) [Example 152, N-(3,4-dichlorophenyl)-6-(methyloxy)-7-[(1,4-oxazepan-2-ylmethyl)oxy]quinazolin-4-amine]"
,6.00 to 7.30,"COc1cc2c(Nc3ccc(Cl)c(Cl)c3)ncnc2cc1OCC1CNCCO1 (stereo not shown) [Example 144, N-(3,4-dichlorophenyl)-6-(methyloxy)-7-[(morpholin-2-ylmethyl)oxy]quinazolin-4-amine]"
> 7.30,,"COc1cc2c(Nc3ccc(Br)c(Cl)c3)ncnc2cc1O[C@H]1CO[C@H]2[C@@H]1OC[C@H]2OC [Example 78, 1,4:3,6-dianhydro-2-O-[4-[(4-bromo-3-chlorophenyl)amino]-6-(methyloxy)quinazolin-7-yl]-5-O-methyl-D-glucitol]"

# pIC50: −log10 of the molar value.
